Amino acid sequences for entries named in this document (tags omitted).
UniProt P08104, whole entry: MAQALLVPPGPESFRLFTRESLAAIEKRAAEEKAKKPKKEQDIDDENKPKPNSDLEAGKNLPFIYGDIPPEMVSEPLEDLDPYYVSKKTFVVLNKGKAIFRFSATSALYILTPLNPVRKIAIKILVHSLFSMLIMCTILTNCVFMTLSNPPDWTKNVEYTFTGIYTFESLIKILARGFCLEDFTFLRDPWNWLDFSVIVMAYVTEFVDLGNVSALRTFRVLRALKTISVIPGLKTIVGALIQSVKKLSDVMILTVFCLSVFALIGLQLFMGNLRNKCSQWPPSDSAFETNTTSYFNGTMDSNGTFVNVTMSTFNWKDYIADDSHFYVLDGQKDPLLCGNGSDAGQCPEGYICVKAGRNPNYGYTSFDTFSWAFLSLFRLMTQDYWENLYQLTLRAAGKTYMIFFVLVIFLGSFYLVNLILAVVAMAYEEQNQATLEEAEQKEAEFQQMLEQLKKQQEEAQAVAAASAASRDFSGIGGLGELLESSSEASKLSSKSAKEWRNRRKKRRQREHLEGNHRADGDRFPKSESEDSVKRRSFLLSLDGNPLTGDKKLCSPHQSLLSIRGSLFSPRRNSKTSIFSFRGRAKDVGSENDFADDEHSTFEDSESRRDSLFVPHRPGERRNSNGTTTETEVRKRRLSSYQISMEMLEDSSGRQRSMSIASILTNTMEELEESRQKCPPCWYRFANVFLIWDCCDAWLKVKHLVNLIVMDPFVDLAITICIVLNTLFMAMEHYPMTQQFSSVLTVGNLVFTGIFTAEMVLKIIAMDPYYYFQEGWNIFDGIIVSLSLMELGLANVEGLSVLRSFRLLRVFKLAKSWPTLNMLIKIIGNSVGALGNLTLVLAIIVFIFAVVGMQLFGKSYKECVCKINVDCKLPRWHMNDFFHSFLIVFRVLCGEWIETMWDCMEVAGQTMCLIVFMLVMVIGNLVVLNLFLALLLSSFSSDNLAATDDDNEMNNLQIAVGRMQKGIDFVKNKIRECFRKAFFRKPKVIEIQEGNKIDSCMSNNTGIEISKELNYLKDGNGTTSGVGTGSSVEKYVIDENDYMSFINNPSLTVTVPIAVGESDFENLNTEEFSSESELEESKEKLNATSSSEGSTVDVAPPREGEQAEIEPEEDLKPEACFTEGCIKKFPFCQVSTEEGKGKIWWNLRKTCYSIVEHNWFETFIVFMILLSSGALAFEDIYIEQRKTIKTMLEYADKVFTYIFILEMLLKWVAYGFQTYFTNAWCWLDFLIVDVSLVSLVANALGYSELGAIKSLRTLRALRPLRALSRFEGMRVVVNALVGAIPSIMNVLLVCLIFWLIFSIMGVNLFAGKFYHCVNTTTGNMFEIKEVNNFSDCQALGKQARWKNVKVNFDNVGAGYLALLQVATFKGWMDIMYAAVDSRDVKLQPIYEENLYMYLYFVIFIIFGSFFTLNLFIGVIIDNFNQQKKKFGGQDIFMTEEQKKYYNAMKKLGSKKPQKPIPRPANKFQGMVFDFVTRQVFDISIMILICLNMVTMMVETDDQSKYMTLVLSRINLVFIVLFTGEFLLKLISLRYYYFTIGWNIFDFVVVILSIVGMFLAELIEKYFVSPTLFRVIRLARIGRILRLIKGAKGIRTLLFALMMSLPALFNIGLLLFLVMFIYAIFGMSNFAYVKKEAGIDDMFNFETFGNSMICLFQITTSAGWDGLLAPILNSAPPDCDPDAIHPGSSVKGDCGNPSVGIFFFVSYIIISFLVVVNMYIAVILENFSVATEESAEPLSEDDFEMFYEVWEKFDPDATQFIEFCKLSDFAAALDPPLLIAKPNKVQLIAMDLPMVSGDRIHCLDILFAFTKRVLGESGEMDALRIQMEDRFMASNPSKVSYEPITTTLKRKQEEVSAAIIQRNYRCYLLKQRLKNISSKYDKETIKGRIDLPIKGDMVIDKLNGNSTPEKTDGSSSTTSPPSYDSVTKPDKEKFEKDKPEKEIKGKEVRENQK

According to US20110065647A1 (BIOSEARCH 2007, published 2011):

Biological target: rNaV1.3 channels (rat, UniProt P08104 1-1951)
Test: cell-based or functional assay

B1: Peptide D (peptide)
peptide: ACKGLFVTCTPGKDECCPNHVCSSKHKWCKYKT
modifications: C-terminal amidation; three disulphide bridges (probably C1-C4, C2-C5, C3-C6)
IC50 Nav1.3 (µM); inhibition of channel current, patch clamp: 0.16 µM
